Screens as filed in PubChem.
p-CIP stab down – p/CIP-EGFP fusion destabilizers, primary screen, fluorescence, F442A cells; decrease of EGFP signal, % at 10 µM; 16 h; actives 0.01% (n = 290,000); AID 1984, 2009; Q05BA5;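 active = EGFP signal decrease of at least 30% at 10 µM or well 3 SD below plate mean, unless failing retest; inactive = the rest, including hits failing retest or dose response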
PKA-R1A act – activators of PKA-R1A holoenzyme, primary screen, biochemical, fluorescence polarization, Cy5-IP20, bovine R1A, mouse PKAc; PKA-R1A dissociation; scaled: DMSO 0%, 113 µM cGMP 100%; activation, % at 11.4 µM; actives 0.083% (n = 340,000);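 active = percent activation above the mean of all tested compounds plus 3 SD, cut at about 19% in these data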;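 note: higher means more PKAc released from R1A so a rise in polarization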
UUG fidelity – yeast start codon fidelity modulation | S. cerevisiae UUG-firefly luciferase reporter, luminescence/redox ratio | activity score, % at 18.7 µM | hit rate 0.13% among 350,000 | AID 602363;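 active means replicate mean at a twofold rise or more, about +100% in these data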;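 further: firefly luciferase made from a UUG start codon reports start codon fidelity; reporter light over untreated wells divided by growth signal over untreated wells; some hits fall short of that in this replicate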
PKA-R2B activ – activators of PKA-R2B holoenzyme, primary screen, biochemical, fluorescence polarization, Cy5-IP20, human. cAMP-dependent protein kinase catalytic subunit beta (Homo sapiens) + cAMP-dependent …. PKA-R2B holoenzyme dissociation; R2B truncated from residue 108, S112A mutant; 0% DMSO only, 100% 113 µM cGMP. activation, % at 11.4 µM. actives 0.079% (n = 340,000). AID 504700, 2011;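 active = activation above a cutoff set at the mean over all compounds plus 3 SD, cut at about 18% in these data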;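 note: higher means more holoenzyme dissociation and a rise in polarization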
ABCB6 inh 2 – ABCB6 transporter inhibitors, primary screen, K562-ABCB6 cells, flow cytometry, MLPCN library; fluorescence ratio to DMSO, % at 10 µM; K562-ABCB6 porphyrin accumulation, 1 h; active compounds read low; actives 0.19% (n = 360,000);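 active = fluorescence ratio to DMSO below 75%, the collection mean minus 3 SD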;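 note: signal is porphyrin accumulated inside mitochondria; 100% equals median channel fluorescence of DMSO control wells; lower ratio means ABCB6 inhibition with less porphyrin fluorescence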
Exocytosis inh – LAMP-1 surface exposure blockers, TALL-104 cells – cell-based, flow cytometry, MLPCN library, primary screen; inhibition, % at 10 µM; AID 651702, 2012; actives 0.66% (n = 360,000); TALL-104 LAMP-1 surface exposure; cells stimulated with thapsigargin and PMA;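 active = inhibition above about 55%, limit read from the data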
Exocytosis CP01 – inhibitors of lytic granule exocytosis, confirmation, TALL-104 cells, flow cytometry, Cherry Pick01; shares compounds with Exocytosis inh; LAMP-1 externalization; stimulated with PMA plus thapsigargin; AID 651954, 2012; inhibition, % at 10 µM; actives 11% (n = 1,500); in the data active = inhibition above about 60%;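 note: 0% = stimulated vehicle wells and 100% = unstimulated wells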
* hit, by the source's call; x = not tested or not shown. This is a sample that favours compounds with a hit; in the whole collection about 0.94% have one here.

UUG fidelity	PKA-R1A act	Exocytosis inh	Exocytosis CP01	PKA-R2B activ	p-CIP stab down	ABCB6 inh 2	SMILES
-16	3	79*	80*	-6	-1	92	CCOc1ccc(-c2cc(C(=O)NCCCn3ccnc3)c3cc(Br)ccc3n2)cc1
x	-6	-1	x	-8	14	97	CCOc1ccc(-c2cc(C(=O)NCCCn3ccnc3)c3ccccc3n2)cc1
-16	-6	68*	-14	-3	-2	98	CCCS(=O)(=O)N1CCCC(C(=O)Oc2ccccc2Cl)C1 (stereo not drawn)
6	-3	-15	x	-9	-3	93	CCCCS(=O)(=O)N1CCCC(C(=O)Oc2ccccc2OC)C1 (stereo not drawn)
-8	1	56*	-2	-3	x	98	CCn1c(=O)c2c3c(sc2n2c(SCc4ccc(F)cc4)nnc12)CCCC3
-7	-7	68*	5	-8	-1	101	O=C(Nc1ccc(-c2nc3ccccc3[nH]2)cc1)c1ccccc1NS(=O)(=O)c1ccc(F)cc1
-16	-8	90*	94*	4	6	94	Cc1cc(F)ccc1S(=O)(=O)Nc1ccccc1C(=O)Nc1ccccc1-c1nc2ccccc2[nH]1

Three entries from above, ordered by SMILES length, highest first:
UUG fidelity	PKA-R1A act	Exocytosis inh	Exocytosis CP01	PKA-R2B activ	p-CIP stab down	ABCB6 inh 2	SMILES
-16	3	79*	80*	-6	-1	92	CCOc1ccc(-c2cc(C(=O)NCCCn3ccnc3)c3cc(Br)ccc3n2)cc1
-8	1	56*	-2	-3	x	98	CCn1c(=O)c2c3c(sc2n2c(SCc4ccc(F)cc4)nnc12)CCCC3
-16	-6	68*	-14	-3	-2	98	CCCS(=O)(=O)N1CCCC(C(=O)Oc2ccccc2Cl)C1 (stereo not drawn)
